Results on 1 substance are retold here after EP0550007A2, “Eseroline derivatives having anticholinesterase activity, a process for their preparation and pharmaceutical compositions containing them” (priority 1991, dated 1993).

Several values for one entry are separate records, joined by “and”; a condition that tells them apart may be missing. Equal entries are not always repeated.

This series is described as follows: toxicity, LD50 i.p. (Table 1). Type of series: in vivo. The note with it: 50 % of the animals died within 24 hours from the administration, 1440 min. Here is the method:
LD50 is determined for the dose (mg/kg) at which 50 % of the animals died within 24 hours from the administration.
In the following table the results are reported of the toxicity trials relevant to the compounds of the invention.

The term LD50 denotes the dose expected to kill half of the subjects tested. Read a high LD50 as a less toxic substance. Turning to “(3-aS-cis)-1,2,3,3a,8,8a- hexahydro 1,3a,8-trimethylpyrrole [2,3-B]-indole 5-ol-2-methyl-1,3 dioxolane carbamate ester [ESE008]”, the LD50 was > 30 mg/kg and < 60 mg/kg.
